## AlphaSeq binding of Ab-14 light chain variants to a spike HR2 peptide

All variants were tested on one target, the spike HR2 peptide PDVDLGDISGINAS (SARS-CoV-2).

Ab-14 is the parent antibody, in scFv form: VH, then a 15-residue (Gly4Ser)3 linker, then VL. The heavy chain is unchanged in all variants.
VH: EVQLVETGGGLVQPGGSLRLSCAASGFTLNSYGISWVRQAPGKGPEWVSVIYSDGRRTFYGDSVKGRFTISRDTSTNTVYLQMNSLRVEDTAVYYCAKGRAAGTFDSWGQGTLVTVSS
VL: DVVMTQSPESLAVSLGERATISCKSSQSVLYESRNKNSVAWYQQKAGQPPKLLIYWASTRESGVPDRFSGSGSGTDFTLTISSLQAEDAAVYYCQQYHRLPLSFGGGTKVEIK

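The starting antibody came from a phage panning campaign against this peptide. The variants were designed computationally from a first round of random CDR variants and then made and measured. Several design methods are mixed in this list. Affinity was read by AlphaSeq, a pooled yeast mating assay with surface-displayed partners. The frequency of each diploid, read from paired DNA barcodes, reflects how well the two displayed proteins bind. A regression on co-assayed BCL2-family reference pairs converts the normalised counts of each replicate to an apparent Kd. The assay was run in six technical replicates.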

Variants are written as CDR1, CDR2 and CDR3 of the light chain (limits as in the source). Parent: KSSQSVLYESRNKNSVA, WASTRES, QQYHRLPLS.
Variants here have more than six changes.
The Kd shown is the geometric mean over detected replicates; a lower Kd is a better binder.
"not detected" marks a missing value. The strain was present, yet no cells mated with the target were sequenced in any replicate, which points to weak or no binding.

CDR-L1	CDR-L2	CDR-L3	Kd	seen in
KFSQSVGYQDRNKNSVA	NAQTRMQ	QQYHRLPLS	1.1 nM	6/6
SISMLLNFESKMGNNVA	QMETRVN	QQYDRLPLT	4.9 nM	6/6
KSSPSEPYEDRNFNSVA	HASQRES	QQYHRLPLS	1.5 nM	6/6
KISQMYRYEQQNSSAIA	EVSTRLN	QSYHRLPLS	120 nM	5/6
KLSMITGHMHMSKNNVA	EMVTREN	QQYDRLPLS	6.9 nM	6/6
EIRWQQYDGSEMEANIA	QEGTRHQ	QQYSRLPLS	not detected	0/6
KIGATLNMLEHKQNNVA	DLVTREN	QQYFRLPLS	1.2 nM	6/6
KLQQSMLYMDRNANNVA	NASTRLS	QQYHRLPLS	580 pM	6/6
IISQLMLYESATHNSIA	QTSTREE	QQYHHLPLS	19 nM	6/6
TISQSANMESHNKNSVA	DLNVRGS	QQYDRLPLS	3.3 nM	6/6
KLRQVTGYESYNKNSVA	QTSTRVQ	QDYHRLPLS	72 nM	6/6
KLEWSDLLESRNKQSVA	NASQRES	QQYHRLPLS	1.2 nM	6/6
HLGLVTMLEYAVRNNVA	NNSTREE	QQYDRLPLS	not detected	0/6
KFSQSWLYEQRQVNSVA	NASYRLL	QQYHRLPLS	1.8 nM	6/6
MFSQSVMAGSFYRNSVA	QTSTRES	QQYDRLPLS	3.5 nM	6/6
KISSLTLYESVNKNNIA	EMSTRPS	QSYHRLPLS	2.1 nM	6/6
MITGSMEQEWSNKNPVA	SATDRAP	QSYFRLPLM	3.7 nM	6/6
FMEMDFQENSGRGSSIA	SEEVKTT	QQYGRLPLS	27 nM	5/6
SMFEKEYEELQVEDNIA	DATERMV	QQYFRLPLL	21 nM	6/6
NLNDGPMYQQIHMDAIA	QEAIRNA	QQYARLPLS	97 nM	6/6
MLSDFVKMGSRNTNSVA	DNSTRGS	QQYDRLPLS	99 nM	5/6
TISQLMLYETRNKNNVA	GTSTRES	QCYHRLPLS	1.2 nM	6/6
TLYGLSVSMAKNKNSVA	EMTTREK	QQYDRLPLI	140 nM	6/6
KVSEFTRGLMSRQDSIA	DNVTRNS	QQYDRLPLS	150 nM	4/6
KLEISVMQWSRNKNSVA	NASTREV	QQYHRLPLS	1.4 nM	6/6
KLSMITGHQLMQKNNVA	EMVTREN	QQYNRLPLS	710 pM	6/6
KMQGSNLYESRNCNSVA	NASTRLW	QQYHRLPLS	3.9 nM	6/6
KLVQFMNRGTHHTSNIA	DAQNRID	QQYARLPLV	4.8 nM	6/6
MVSQIMLWGLHAKNSIA	EAQMRLN	QQYDRLPLI	40 nM	3/6
TISQLHNMGTFAINSVA	QASIRNE	QQYDRLPLQ	13 nM	6/6
TISGMANYESTNINSVA	ELTTRGS	QQYERLPLS	3.4 nM	6/6
TLMQVAGYEMNAHNSIA	DLRTRES	QQYHRLPLS	4.1 nM	6/6
QIAETNMQVGIGANAIA	NATVRPA	QQYLRLPLM	2.8 nM	6/6
KLTMITGLEKVSGNNVA	EMETRER	QQYNRLPLS	2.2 nM	6/6
QITGEQSMRTQGNWNIA	QAEQKVH	QQYDRLPLA	17 nM	6/6
IVSQLMLWGMHAKNSIA	EASARLN	QQYDRLPLF	4.5 nM	6/6
TIGQMFNGESRIRNSVA	QASTREP	QSYDRLPLS	79 nM	5/6
KMTKAEQGAGSHQQNIA	DSNKITD	QQYYRLPLS	830 pM	6/6
KVSEFMRGLMGRKDSIA	DNVTRNK	QQYDRLPLS	110 nM	6/6
WLSMWEQSGTRGYSSVA	DTDVRMA	QQYFRLPLS	2.8 nM	6/6
NISINVADEYAMRNNIA	NTSWKAI	QQYFHLPLM	13 nM	6/6
MMSSLMGYESRHINNVA	QTSTREE	QQYDRLPLV	5.9 nM	6/6
QLAVDRLQEYEMGDAIA	GKTTRED	QQYARLPLS	1.2 nM	6/6
QIYQAMHTLSQMKDNVA	DVNERGN	QQYYRLPLS	7.6 nM	6/6
MMSQVTGLGMRHRNNVA	QTSTREP	QQYDRLPLI	21 nM	6/6
IISQLYNMGQFAINSVA	QASIRCN	QQYDRLPLA	not detected	0/6
TLYGLSMSMSKNKNNVA	EMSTREP	QQYDRLPLF	7.5 nM	6/6
MAYGGDMLEMVTRNSVA	NAETRAD	QDYHRLPLS	1.5 nM	6/6
SLFEKEREELLVEDNIA	DGTEHMD	QQYFRLPLL	11 nM	6/6
KLLQVTGYESYVRNSVA	QMSTRAE	QDYNRLPLS	2.0 nM	6/6
TIQQLMSLFSQTINNVA	EVSLREK	QQYDRLPLA	79 nM	1/6
KISMTYRYESQASNSIA	EMTTRAE	QSYHRLPLA	18 nM	5/6
KINERMRMGENQQHSIA	NATEIVK	QQYHNLPLG	2.5 nM	6/6
KFDFQMPELNYQDNSIA	GMTVSIE	QQYWRLPLT	not detected	0/6
MIEIIPNGYMKMRSNVA	DGSLVRM	QQYARLPLM	not detected	0/6
KLRMSTAYLSENKNSVA	ELSTRGS	QQYFRLPLS	3.4 nM	6/6
RITILSDYYLENRNAIA	ETSLKAH	QQYFMLPLT	5.6 nM	6/6
KIRVHNLMFSQNESSIA	GQSNRSE	QQYYHLPLT	65 nM	3/6
KLEISVMQESRNKNSVA	NASTREV	QQYHRLPLS	340 pM	6/6
ALSIQQQENTQIVNSIA	QTSLREH	QQYHHLPLC	730 pM	6/6
RLQIDDNGYEGMRNNVA	DGGMVRM	QQYARLPLM	4.0 nM	6/6
KLHQSVLYESRHANNVA	NASQRES	QQYHRLPLS	950 pM	6/6
KQQFSGMMGSRNKNSVA	KASTRES	QQYHRLPLS	82 nM	5/6
KLVQSELYESRQSNSVA	NASYRES	QQYHRLPLS	2.0 nM	6/6
KMSSSWLMEERNKNSVA	QASQRER	QQYHRLPLS	280 pM	6/6
KIGMTLNTLMHQKNNVA	DLVTREA	QQYHRLPLS	1.6 nM	6/6
KLMDNPWVEDKYRNAIA	DIEEKAI	QFYSRLPLS	820 nM	2/6
MISQLMNLGQFAINSVA	QASIRNH	QQYDRLPLA	110 nM	4/6
KIMQSLNYEQFNVSSVA	GQETRER	QAYHRLPLS	4.2 µM	1/6
IVSQLMLWGMHAKNSIA	EAQTRLN	QQYDRLPLM	32 nM	2/6

Again, the first 5 entries without any signal:

| CDR-L1 | CDR-L2 | CDR-L3 | Kd | seen in |
|---|---|---|---|---|
| EIRWQQYDGSEMEANIA | QEGTRHQ | QQYSRLPLS | not detected | 0/6 |
| HLGLVTMLEYAVRNNVA | NNSTREE | QQYDRLPLS | not detected | 0/6 |
| IISQLYNMGQFAINSVA | QASIRCN | QQYDRLPLA | not detected | 0/6 |
| KFDFQMPELNYQDNSIA | GMTVSIE | QQYWRLPLT | not detected | 0/6 |
| MIEIIPNGYMKMRSNVA | DGSLVRM | QQYARLPLM | not detected | 0/6 |

Of ten entries with the parent sequence, four were seen in most replicates (averages 2.2 nM to 240 nM), three in one and three in none, so single entries are noisy.
A sequence measured in both rounds can read differently, since the two assays cover different ranges.
In the paper, a design with two or fewer of six values counts as a poor binder.
Nonspecific signal, from three strains lacking the peptide, appeared in 4% of pairings of all light chain designs, centred on 430 nM (5% of these signals below 38 nM); values are not corrected for it.

Data: MIT Lincoln Laboratory AlphaSeq set, Li et al. 2023, doi:10.1038/s41467-023-39022-2, as distributed in FLAb.